Data on 2 molecules can be found in patent US20250019374A1, “PROTEIN TYROSINE PHOSPHATASE INHIBITORS AND METHODS OF USE THEREOF” (Calico Life Sciences LLC, priority 2021, published 2025).

Where only a bound is given, the exact number is not on record here.

This assay deals with IFNγ-induced STAT1 phosphorylation (pSTAT1) in B16F10 cells. The assay is described as follows: B16F10 Phospho-STAT1 HTRF proximal pharmacodynamic (PD) assay. As to conditions: read-out: pSTAT1 EC50, Table 3, chromane comparator. The protocol: Example III-3: B16F10 (Murine Melanoma Cells) Phospho-STAT1 HTRF Proximal Pharmacodynamic (PD) Assay
B16F10 cells were grown and maintained in high glucose DMEM (Gibco, Catalog^#11965-092, Dun Laoghaire Co Dublin) supplemented with 10% fetal bovine serum (Gibco, Catalog^#10082-139, Dun Laoghaire Co Dublin). The cells were pelleted and resuspended in high glucose DMEM without phenol red (Gibco, Catalog^#11054-020, Dun Laoghaire Co Dublin), supplemented with 10% fetal bovine serum and plated in a 384 well Corning plate (product^#3765, Corning, NY) at 11,000 cells per well in a volume of 20 μL. The cells were dosed with the compounds of interest using an Echo Liquid Handler (Beckman Coulter, Brea, CA) at 50 μM top dose with 3-fold dilutions down to 0.002679 μM for a 10-point dose response. The plate was incubated for 3 hours at 37° C. and subsequently treated with recombinant mouse IFNγ (R&D Systems, Catalog^#485-MI, Minneapolis, MN; 100 nM final concentration) for 10 minutes at 37° C. to induce STAT1 phosphorylation followed by 3.3 μM staurosporine treatment for 1 hour at 37° C. to terminate phosphorylation. […] The plate was incubated for 3 hours at room temperature and read on an EnVision® (Perkin Elmer) plate reader with laser excitation at 335 nm and emission at 665 nm. […]
In general terms: Time-resolved FRET reads energy transfer from a long-lived donor to a nearby acceptor.

What is called EC50 is the midpoint of the concentration-response curve. As for `O=C1CN(c2c(O)cc3c(c2F)C[C@H](NCCCC(F)F)CO3)S(=O)(=O)N1`, the EC50 was 3.6 µM. Consider `O=C1CN(c2c(O)cc3c(c2F)C[C@H](NCCCOCC(F)F)CO3)S(=O)(=O)N1`, for which the EC50 was more than 50 µM.
